High-throughput results as filed in PubChem BioAssay.
PTAP TSG101 blk = blocks PTAP/TSG101 interaction to inhibit HIV-1 budding; Q99816; Fluorescence polarization, FITC-PTAP peptide / Tsg101 binding; Potency, µM (top dose mostly 115 µM), for inactives: top-dose activity change, negative = inhibition, hits mostly inhibitors; 340,000 tested, under 10 active; AID 493005; active = well fitted inhibition curve with a large enough effect in the main read-out, with a control signal flat, not every such curve was filed as active; inconclusive = small, poorly fitted or top-dose-only effect, or effect the other way, or a change in a side signal; inactive = no such curve, though single readings can be large or run the other way; note: potency is the fitted concentration of half-maximal effect; % of control where 0% means no effect
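Compounds were pin-transferred onto Tsg101 binding domain (10 uM final) in HEPES pH 7.5 buffer, then FITC-PTAP peptide was added at 50 nM final. After 20 min at RT, polarization reported peptide displacement across a qHTS concentration series.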
A549 tox = A549 cytotoxicity, counter-screen for Nrf2 inhibitors; A549 ARE-Fluc cells, CellTiter-Fluor viability, 18-24 h; Potency, µM (titrated, usually from 46 µM), for inactives: at the top dose activity change, negative = cytotoxicity, hits mostly inhibitors; 0.16% of 390,000 active; note: potency is the fitted concentration of half-maximal effect; % is set by controls: 0 for no effect and ±100 for the full control effect
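A549 ARE_Fluc cells in 5% FBS OPTI-MEM were exposed to compounds in concentration-response for 18-24 h at 37 deg C. Viability was read by CellTiter-Fluor fluorescence (Ex 405/Em 525) after 30 min, before the luciferase read.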
GRP78 ERSR act = ER stress response induction in glioma. U87-MG GRP78 promoter luciferase reporter, 16 h. Potency, µM, without a hit: at the highest dose activation, actives largely listed as activators. 0.02% of 420,000 active; note: potency is the fitted concentration of half-maximal effect; series mostly up to about 76 µM; % of control where 0% means no effect; nearly all actives have a fitted effect of over 35% in size
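ERSR induction read as luciferase luminescence (Bright-Glo, 10 min at room temperature) in stably transfected human U87-MG glioma cells exposed to compounds for 16 h, using GRP78 as sensor.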
Nrf2 block = inhibitors of Nrf2 signaling; Potency, µM (series often up to 46 µM), inactives show top-dose activity change, negative = inhibition, usual class: inhibitors; A549 ARE-Fluc reporter, luciferase luminescence, 18-24 h; AID 504444; 2.1% of 360,000 active; note: potency is the fitted concentration of half-maximal effect; % is set by controls: 0 for no effect and ±100 for the full control effect; nearly all actives have a fitted effect of over 60% in size
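Reporter: ARE-Fluc in A549. Exposure: 18-24 h, 37 °C, 5% CO2, 5% FBS OPTI-MEM. Readouts: fluorescent cytotoxicity (CellTiter-Fluor), then luminescent Nrf2 signal after BugLite.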
miR-21 reporter = raises the signal of a miR-21 reporter; HeLa miR-21 FLuc reporter, luciferase, 48 h; Potency, µM (series often up to 38.3 µM), inactives show top-dose reporter change, positive = more light; 340,000 tested, under 10 active; active = well fitted rising curve with a large enough effect; inconclusive = small, poorly fitted or top-dose-only effect; inactive = no such curve, though single readings can be large or run the other way;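 also: % of control where 0% means no effect; miR-21 action dims this reporter so a rising signal means less miR-21 action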
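Using DMEM plus 10% FBS, HeLa miR-21-FLuc cells are incubated with test compounds (final up to about 40uM) for 48 hours; firefly luciferase signal is then imaged following reagent-mediated lysis.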
Nrf2 activator = Nrf2 pathway activation. AREc32 ARE-luciferase reporter (MCF7-derived line), luminescence, 24 h. 0.31% of 410,000 active. Potency, µM (doses to about 46.1 µM), without a hit: at the top dose activation, hits mostly activators; note: potency is the fitted concentration of half-maximal effect; % of control where 0% means no effect; nearly all actives have a fitted effect of over 65% in size
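AREc32 cells carrying an ARE-driven firefly luciferase reporter were seeded at 1000 cells/well in OPTI-MEM with 5% FBS, then exposed to compound for 24 hr at 37 deg C. Luminescence was read with Steady-Glo after 30 min at RT.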
Numbers without * were called inactive; ? = inconclusive; . = no result. Compounds with a hit are over-represented: about 2.1% of the library has one in this group of screens. Unless noted, calls come from the whole dose curve; as a rule, active = well fitted curve in the direction sought with a large enough effect; inconclusive = small, poorly fitted or top-dose-only effect, or another doubt; inactive = no such curve, though single readings can be large; an effect the other way counts as inactive or inconclusive.

The line under a structure holds: PTAP TSG101 blk, A549 tox, GRP78 ERSR act, Nrf2 block, miR-21 reporter, Nrf2 activator
1: CCc1cc2c(N3CCN(c4ccccc4)CC3)ncnc2s1
 : 1.2%, -10.0%, -9.7%, 18.4µM*, 29.6%, 0.2%
2: NC(=O)c1cc2ccccc2o/c1=N\NC(=O)c1ccccc1O
 : -1.3%, -9.5%, 3.4%, 8.2µM*, -4.4%, 0.0%
3: O=C(CCN1Cc2ccccc2OC(c2ccccc2F)C1)N1CCC(N2CCCC(O)C2)CC1 (configuration not stated)
 : ., ., -1.0%, ., ., .
4: COc1cc(OCc2ccccc2)c(C(=O)/C=C/c2ccc3c(c2)OCO3)c(OC)c1OC
 : -10.1%, 0.3%, -1.2%, 20.6µM*, ., ?
5: COc1cc(O)c(C(=O)/C=C\c2ccc3c(c2)OCO3)c(OC)c1
 : ., ., 1.0%, ., ., .
6: Cc1nn(CCCC(=O)Nc2cccc(F)c2)c(=O)c2c1sc1ccccc12
 : ., -12.9%, -4.0%, 2.59µM*, -48.5%, -1.3%
7: Cc1ccc(C(=O)N/C(=C\c2ccc(Br)cc2)c2nc(=S)[nH][nH]2)cc1
 : -9.0%, 25.9µM*, 2.8%, ?, 12.2%, 3.0%
8: Cc1ccc(C)c(C(=O)N2CCC(C3(c4ccccn4)NC(=O)N(CC4CCCO4)C3=O)CC2)c1 (configuration not stated)
 : ., ., -2.7%, ., ., .
9: CC(O)(COc1ccccc1)c1ccc2c(c1)CN(Cc1cccc3cccnc13)CCO2 (configuration not stated)
 : ., ., -2.1%, ., ., .
10: Cc1c(/C=C(\C#N)C(=O)Nc2cccc(Cl)c2)c2ccccc2n1Cc1ccccc1
 : ., ?, -2.2%, 8.2µM*, 0.5%, 0.3%
11: COc1ccc(C(C)=O)cc1CSc1nc(NCc2ccccc2)c2ccccc2n1
 : ., 23.1µM*, -1.8%, ., ?, 3.6%
12: COc1ccc(C(C)=O)cc1CSc1nc(NCCc2ccccc2)c2ccccc2n1
 : ., ?, -1.4%, ., -1.6%, 4.9%
13: COCc1c(C(=O)NC2CCCCCC2)cnn1-c1nccc(-c2cc(C)sc2C)n1
 : ., ., -2.9%, ., ., .
14: O=C(Nc1nnc(CSCc2ccc(F)cc2)s1)c1cccc([N+](=O)[O-])c1
 : -3.3%, ?, -2.8%, 18.4µM*, -0.2%, 4.0%
15: COc1cccc(-c2nc3cc(SC)ccc3cc2CN(C(=O)c2sccc2C)C2CC2)c1
 : ., ., -0.5%, ., ., .

Values by screen from the entries so far.
A549 tox, compounds 4 to 14 → 0.3%, ., -12.9%, 25.9µM*, ., ., ?, 23.1µM*, ?, ., ?
GRP78 ERSR act, compounds 4 to 14 → -1.2%, 1.0%, -4.0%, 2.8%, -2.7%, -2.1%, -2.2%, -1.8%, -1.4%, -2.9%, -2.8%

The listing picks up, repeating the 2 entries before the break.
The line under a structure holds: PTAP TSG101 blk, A549 tox, GRP78 ERSR act, Nrf2 block, miR-21 reporter, Nrf2 activator
14: O=C(Nc1nnc(CSCc2ccc(F)cc2)s1)c1cccc([N+](=O)[O-])c1
 : -3.3%, ?, -2.8%, 18.4µM*, -0.2%, 4.0%
15: COc1cccc(-c2nc3cc(SC)ccc3cc2CN(C(=O)c2sccc2C)C2CC2)c1
 : ., ., -0.5%, ., ., .
16: Cc1c(C(=O)O)sc2ncnc(N3CCCCC3C)c12 (configuration not stated)
 : -2.4%, -29.0%, -2.4%, ?, -6.9%, -0.3%
17: Cc1cc2c(N3CCCCC3C)ncnc2s1 (configuration not stated)
 : 0.5%, -13.5%, -5.6%, 20.6µM*, 2.1%, 2.3%
18: O=C(/C=C/c1ccc(O)cc1)c1ccccc1O
 : ., ., 8.9%, ., ., .
19: O=C(/C=C/c1ccccc1)c1cc(Br)ccc(=O)c1O
 : -20.7%, ?, -13.5%, 18.4µM*, ?, ?
20: Cc1ccc(/C=C/C(=O)c2ccccc(=O)c2O)cc1C
 : -2.8%, ?, 7.7%, 20.6µM*, ?, 16.5%
21: CC1CN(CC(=O)NCCc2ccncc2)Cc2ccccc2O1 (configuration not stated)
 : ., ., -3.8%, ., ., .
22: N#CC(c1cccc(Cl)c1)c1ccc2c(C(F)(F)F)cc(C(F)(F)F)nc2n1 (configuration not stated)
 : 4.5%, 6.51µM*, -8.3%, ., ?, 16.4%
23: CSc1ccc(/C=C2\C=Cc3ccccc32)cc1
 : ., ., 2.7%, ., ., .
24: O=S(=O)(c1ccc2nc(SCc3cccc(Cl)c3)[nH]c2c1)N1CCOCC1
 : 0.5%, ., -2.6%, ., 2.6%, 2.4%
25: O=S(=O)(c1ccc2nc(SCc3ccc(Cl)cc3)[nH]c2c1)N1CCOCC1
 : -2.4%, -13.9%, 0.0%, 23.1µM*, 6.0%, 0.5%
26: Cc1cccc(-n2c(C)nnc2SCC(=O)NC(C)c2ccco2)c1 (configuration not stated)
 : ., ., -3.2%, ., ., .
27: CCOC(=O)c1c(C)[nH]c(C(=O)OCC(=O)NC(C)(C)C)c1C
 : -4.8%, -9.9%, 6.1%, 18.4µM*, 2.4%, 3.1%
28: CC(=O)c1c(C)[nH]c(C(=O)OCC(=O)Nc2cc(C)on2)c1C
 : 0.3%, -6.5%, -6.8%, ?, 1.2%, 2.8%
29: CC(=O)c1c(C)[nH]c(C(=O)OCC(=O)Nc2ccc(Cl)cc2[N+](=O)[O-])c1C
 : -1.5%, -10.7%, -4.5%, 20.6µM*, ?, 11.5%
30: CCOC(=O)c1[nH]c(C)c(C(=O)OCC(=O)NC(=O)NC(C)(C)C)c1C
 : 0.5%, ., -0.5%, 10.2%, -10.5%, 0.0%

Structural class, the entries above with a tert-butyl group.
The line under a structure holds: PTAP TSG101 blk, A549 tox, GRP78 ERSR act, Nrf2 block, miR-21 reporter, Nrf2 activator
27: CCOC(=O)c1c(C)[nH]c(C(=O)OCC(=O)NC(C)(C)C)c1C
 : -4.8%, -9.9%, 6.1%, 18.4µM*, 2.4%, 3.1%
30: CCOC(=O)c1[nH]c(C)c(C(=O)OCC(=O)NC(=O)NC(C)(C)C)c1C
 : 0.5%, ., -0.5%, 10.2%, -10.5%, 0.0%

More records follow.
The line under a structure holds: PTAP TSG101 blk, A549 tox, GRP78 ERSR act, Nrf2 block, miR-21 reporter, Nrf2 activator
31: COc1cc(NC(=O)COC(=O)c2[nH]c(C)c(C(C)=O)c2C)cc(OC)c1
 : -3.4%, -17.1%, -0.7%, 13µM*, ., 5.8%
32: CC(=O)c1c(C)[nH]c(C(=O)OCC(=O)Nc2ccc3c(c2)OCCO3)c1C
 : -3.2%, -0.6%, -3.8%, 16.4µM*, ., 2.5%
33: Cc1ccc(S(=O)(=O)NNC(=O)c2ccc(C(=O)N(c3ccccc3)c3ccccc3)cc2)cc1
 : ., ., -0.2%, ., ., .
34: CCCCCCCCCCCCCCCCn1cc[n+](Cc2ccccc2)c1C
 : ., ., -11.8%, ., ., .
35: O=C(CNC(=O)C1CCCCCC1)OC(C(=O)Nc1cc(C(F)(F)F)ccc1Cl)c1ccccc1 (configuration not stated)
 : ., 2.2%, ., 0.6%, ., .
36: CC(C)c1c(C(=O)N2CCN(CCO)CC2)cnn1-c1nccc(-c2cccs2)n1
 : ., ., -5.5%, ., ., .
37: O=C(c1ccc(S(=O)(=O)c2cccc(Cl)c2)c([N+](=O)[O-])c1)N1CCN(c2ccccn2)CC1
 : -1.6%, ?, -14.5%, 16.4µM*, ?, -1.7%
38: O=C(c1cccc(Cl)c1)N1CCN(c2ccccn2)CC1
 : -3.7%, -7.9%, -5.6%, -9.2%, -7.8%, -0.2%
39: O=C1CCc2cc(S(=O)(=O)Nc3ccccn3)ccc2N1
 : ., 12.3%, ., 15.0%, ., .
40: Nc1ccc(/C=C/c2ccnc3ccccc23)cc1
 : ., ., -4.6%, ., ., .
41: Cc1ccc(NC(=O)CSc2nnc(CCCCCNC(=O)OC(C)(C)C)o2)c(C)c1
 : -8.2%, -14.2%, -1.7%, 16.4µM*, 3.8%, -0.7%
42: CCS(=O)(=O)NCc1c(C)ncc2c1CCN(C(=O)c1ccc(F)cc1)C2
 : ., ., 3.1%, ., ., .
43: CCc1cccc(CC)c1NC(=O)c1cc(S(=O)(=O)N2CCc3ccccc32)cn1C
 : ., -19.4%, -2.9%, 23.1µM*, 1.4%, -1.2%
44: CCC(C)(C)NC(=O)c1cc(S(=O)(=O)N2CCc3ccccc32)cn1C
 : -0.6%, -6.0%, -1.8%, ?, 15.1%, -0.1%
45: CCc1cc2c(s1)c1cnn(Cc3ccccc3F)c(=O)c1n2C
 : ., 9.3%, ., ?, ., .
46: Cc1nc(-c2ccc(S(=O)(=O)N3CCN(CCc4ccccc4)CC3)s2)cs1
 : 1.7%, -6.9%, -4.9%, 23.1µM*, 5.2%, -0.4%
